Sequences of proteins named here, by UniProt entry; tags and fusion partners are left off. A change or cut given only in a name is not applied to a line headed by its entry.
UniProt Q9QZN9: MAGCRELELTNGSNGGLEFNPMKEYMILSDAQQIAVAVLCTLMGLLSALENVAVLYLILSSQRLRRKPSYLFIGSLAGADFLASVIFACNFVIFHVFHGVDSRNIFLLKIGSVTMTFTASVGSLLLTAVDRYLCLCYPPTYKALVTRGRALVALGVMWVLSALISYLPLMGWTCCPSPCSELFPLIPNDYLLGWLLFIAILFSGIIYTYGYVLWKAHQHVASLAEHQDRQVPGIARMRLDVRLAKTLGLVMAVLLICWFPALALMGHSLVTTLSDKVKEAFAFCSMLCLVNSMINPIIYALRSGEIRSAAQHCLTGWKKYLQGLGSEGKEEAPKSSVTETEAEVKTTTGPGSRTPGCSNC
UniProt P20272: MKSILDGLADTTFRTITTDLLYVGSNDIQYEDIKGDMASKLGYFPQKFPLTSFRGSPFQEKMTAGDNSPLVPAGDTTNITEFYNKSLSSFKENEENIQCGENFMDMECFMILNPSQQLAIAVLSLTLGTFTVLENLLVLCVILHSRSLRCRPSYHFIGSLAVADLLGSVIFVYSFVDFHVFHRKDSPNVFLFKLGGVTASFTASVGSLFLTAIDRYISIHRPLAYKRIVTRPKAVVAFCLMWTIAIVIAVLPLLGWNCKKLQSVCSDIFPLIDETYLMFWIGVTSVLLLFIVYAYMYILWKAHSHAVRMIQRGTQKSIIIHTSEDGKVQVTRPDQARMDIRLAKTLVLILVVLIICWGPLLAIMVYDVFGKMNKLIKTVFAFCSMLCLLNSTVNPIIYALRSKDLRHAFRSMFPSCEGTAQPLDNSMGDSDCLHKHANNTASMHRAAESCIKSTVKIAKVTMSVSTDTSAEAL

In ChEMBL document CHEMBL1130399, “Synthesis and pharmacological comparison of dimethylheptyl and pentyl analogs of anandamide” (J Med Chem, 1997):

What was measured:
Cannabinoid receptor [1] = biological target: T1, Cannabinoid receptor (Rattus norvegicus, UniProt Q9QZN9+P20272); experiment: Binding affinity towards cannabinoid receptor using [3H]SR-141,716A as radioligand in rat brain membrane; type: cell membranes
Cannabinoid receptor [2] = biological target: T1, Cannabinoid receptor; experiment: Binding affinity towards cannabinoid receptor using [3H]CP-55940 as radioligand in rat brain membrane; type: cell membranes

SMILES	Ki (Cannabinoid receptor [1]) [nM]	Ki (Cannabinoid receptor [2]) [nM]
CCCCC/C=C\C/C=C\C/C=C\C/C=C\CCCC(=O)NC[C@H](C)O	2890	
CCCCC/C=C\C/C=C\C/C=C\C/C=C\CCCC(=O)NCCO [ANANDAMIDE]		25
CCCCC/C=C\C/C=C\C/C=C\C/C=C\CCCC(=O)N[C@H](C)CO [METHANANDAMIDE]	585	22
